Assay outcomes as filed in PubChem.
miR-21 reporter = raises the signal of a miR-21 reporter | Potency, µM (doses to about 38.3 µM) | HeLa miR-21 FLuc reporter, luciferase, 48 h | AID 2288 | 340,000 tested, under 10 active; active = well fitted rising curve with a large enough effect; inconclusive = small, poorly fitted or top-dose-only effect; inactive = no such curve, though single readings can be large or run the other way;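 also: miR-21 action dims this reporter so a rising signal means less miR-21 action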
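HeLa cells stably expressing CMV-driven firefly luciferase with a downstream miR-21 binding sequence, endogenously expressing miR-21, were treated with titrations (up to about 40uM final) for 48 hours at 37 degree Celsius. Luciferase luminescence was read after lysis.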
G9a block = G9a (human) methyltransferase inhibition; Potency, µM (highest dose often 102 µM), hits mostly inhibitors; Q96KQ7; AID 504332; 8.8% of 350,000 active; G9a H3K9 monomethylation, AlphaScreen, 2 h; further: nearly all actives have a fitted effect of over 75% in size
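G9a (20 nM) preincubated 15 min RT with compounds, then 500 nM biotinylated H3K9 peptide and 20 uM SAM added; 2 h RT reaction. Monomethyl-H3K9 product detected by AlphaScreen with anti-H3K9me1 antibody, streptavidin donor and anti-rabbit IgG acceptor beads.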
KDM4E inh = JMJD2E (human) inhibition. 1.6% of 230,000 active. Potency, µM (highest dose often 57.1 µM), usual class: inhibitors. JMJD2E catalytic domain, FDH-coupled NADH fluorescence (FDH is formaldehyde dehydrogenase); further: nearly all actives have a fitted effect of over 50% in size
ALDH1A1 inh = inhibitors of human aldehyde dehydrogenase 1A1; P00352; Purified ALDH1A1, NADH fluorescence, propionaldehyde substrate; Potency, µM (top dose mostly 75.3 µM), usual class: inhibitors; 7.3% of 220,000 active; AID 1030; active means well fitted inhibition curve with a large enough effect, not every such curve was filed as active; inconclusive means small, poorly fitted or top-dose-only effect, or another doubt; inactive means no such curve, though single readings can be large or run the other way
Lamin A splicing = changes lamin A minigene splicing in HeLa cells; Potency, µM (highest dose often 46.1 µM), hits mostly inhibitors; HeLa LMNA splicing GFP/RFP minigene ratio, 48 h; 0.01% of 200,000 active; AID 1487; active means well fitted inhibition curve with a large enough effect in the signal ratio, with a control signal flat, not every such curve was filed as active; inconclusive means small, poorly fitted or top-dose-only effect, or effect the other way, or a change in a side signal; the % refers to the signal ratio
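Read-out is the ratio of GFP to DsRed2 object intensity, acquired by 488 nm laser-scanning cytometry on HeLa lamin A-EGFP minigene reporter cells. Compound incubation 48 hrs at 37 °C in Opti-MEM with 2% FBS; DMSO 0.5% final.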
Sfp inh = Sfp phosphopantetheinyl transferase inhibition | Q9F4F7 | Biochemical Sfp PPTase activity, qHTS | Potency, µM, actives largely listed as inhibitors | 3.5% of 310,000 active | AID 1490;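 further: the enzyme is Sfp with the accession as filed and its product quenches rhodamine fluorescence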
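Compounds were incubated with enzyme (final 15 nM) for 15 min at room temperature before substrate addition started the reaction. Fluorescence at 525 nm excitation, 598 nm emission was recorded immediately and after 30 minutes.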
Hits are given with their value; . = inactive; ? = inconclusive; / = no result; [ ] = dose if it differs, or a comment. The list is not random: actives were taken first. Their share in the collection is about 13%. Unless noted, the call rests on the fitted dose curve; in most records, active means well fitted curve in the direction sought with a large enough effect; inconclusive means small, poorly fitted or top-dose-only effect, or another doubt; inactive means no such curve, though single readings can be large; an effect the other way counts as inactive or inconclusive.

SMILES	miR-21 reporter	G9a block	KDM4E inh	ALDH1A1 inh	Lamin A splicing	Sfp inh
Cc1nc2cc(N=NC3=C(O)CCCC3=O)ccc2s1	.	?	.	?	.	.
COc1ccc(N/C(=C(/C(Cl)=C(Cl)Cl)[N+](=O)[O-])n2nnc3ccccc32)cc1	.	11µM	?	16µM	.	?
Cc1ccccc1N/C(=C(/C(Cl)=C(Cl)Cl)[N+](=O)[O-])n1nnc2ccccc21	.	10µM	.	14µM	.	.
Cc1cc(C)c2cc(CN(CCO)Cc3nnnn3Cc3ccccc3)c(=O)[nH]c2c1	.	40µM	.	5µM	.	.
Cc1ccc2cc(CN(CCO)Cc3nnnn3Cc3ccc(F)cc3)c(=O)[nH]c2c1	.	32µM	?	20µM	.	.
O=c1[nH]c2cc3c(cc2cc1CN(CCCO)Cc1nnnn1Cc1ccc(F)cc1)OCO3	.	/	?	?	.	.
COCCn1nnnc1CN(Cc1cccnc1)Cc1cc2cc(OC)ccc2[nH]c1=O	.	?	?	?	.	.
COCCn1nnnc1CN(CCc1ccc(OC)c(OC)c1)Cc1cc2ccc(C)cc2[nH]c1=O	.	?	?	11µM	.	?
Cc1cc(C)c2cc(CN(CCO)Cc3nnnn3Cc3ccc(F)cc3)c(=O)[nH]c2c1	.	.[12.7 µM]	?	13µM	.	.
COc1ccc2[nH]c(=O)c(CN(Cc3nnnn3Cc3ccc(F)cc3)CC3CCCO3)cc2c1 (stereo not drawn)	.	?	?	?	.	.
COC(=O)c1cc(NC(=O)c2cc(C(C)(C)C)nn2Cc2ccc(F)cc2)ccc1N1CCOCC1	?	?	?	/	/	.
CCS(=O)(=O)N1CCC(C(=O)Oc2ccc(C)c(C)c2)CC1	.	/	/	/	/	.
COc1ccc(OC)c(NC(=O)CCN2C(=O)c3ccccc3C2=O)c1	.	.	/	/	/	.
COc1ccccc1N1CCN(C(=O)c2ccc3c(c2)NC(=O)C(CSCc2ccccc2C)N3)CC1 (stereo not drawn)	.	?	/	/	/	50µM
Cc1cccc(N2CCN(C(=O)c3ccc4c(c3)NC(=O)C(CSCc3cccc(F)c3)N4)CC2C)c1 (stereo not drawn)	.	/	/	/	/	56µM
O=C1Nc2cc(C(=O)N3CCN(c4ccccc4F)CC3)ccc2NC1CSCc1ccccc1F (stereo not drawn)	.	?	/	/	/	56µM
COc1ccccc1N1CCN(C(=O)c2cccc(C(=O)N3CCN(c4ccccc4OC)CC3)c2)CC1	.	.	/	/	/	.
O=C1CC(Sc2ncccn2)C(=O)N1c1ccccc1C(F)(F)F (stereo not drawn)	.	?	.	20µM	.	.
Cc1ccc(CNC(=O)CN2C(=O)C3(SCC(=O)N3c3cc(C)cc(C)c3)c3ccccc32)cc1 (stereo not drawn)	.	.	/	/	?	/
Cc1ccc(C)c(S(=O)(=O)c2nnn3c2nc(NC2CCCC2)c2sccc23)c1	.	.	/	/	/	/
COC(=O)C1=C(C)NC(=O)/C1=C\c1cc(C)n(-c2ccc(F)cc2)c1C	.	/	20µM	.	/	35µM
COC(=O)C1=C(C)NC(=O)/C1=C\c1cc(C)n(-c2cccc(C)c2)c1C	.	.[12.7 µM]	.	?	?	?
COC(=O)C1=C(O)/C(=C\c2cc(C)n(-c3ccc(F)cc3)c2C)N=C1C	.	35µM	?	.	.[9.22 µM]	?
COc1ccc(C(CNC(=O)c2cccc(S(=O)(=O)NCc3ccccc3)c2)N2CCOCC2)cc1 (stereo not drawn)	/	.	/	/	/	/
N#CC1=C(N)N2C(=C(C#N)C13CCCCC3)SC1CCCCC12O (stereo not drawn)	.	?	.	0.71µM	?	.
SMILES	miR-21 reporter	G9a block	KDM4E inh	ALDH1A1 inh	Lamin A splicing	Sfp inh
Cc1ccc(-c2n[nH]c(=S)n2/N=C/c2c(C)nn(-c3ccccc3)c2C)cc1	.	10µM	.	.	.	.
Cc1ccccc1-c1n[nH]c(=S)n1/N=C/c1c(C)nn(-c2ccccc2)c1C	.	1µM	.	.	?	?
COc1ccccc1NC(c1ccc(Cl)cc1)c1nnc(-c2cccc(F)c2)o1 (stereo not drawn)	.	.	/	/	/	/
CC(C)Cn1c2c(c(O)c(C(=O)Nc3nccs3)c1=O)CCCC2	.	.	?	14µM	?	.
CCOc1ccc(-n2c(SCc3ccc([N+](=O)[O-])cc3)nnc2-c2ccc(OC)cc2)cc1	.	8.9µM	.	.	?	.
CC(C)C[C@H](NC(=O)c1nc[nH]c1C(=O)N(C)Cc1ccccc1)C(=O)OC(C)(C)C	.	.[12.7 µM]	.	7.9µM	/	.
O=C(c1cc(C2CC2)nn1-c1ccccc1)N1CCN(c2ccc(O)cc2)CC1	/	2.8µM	/	/	/	/
O=C(c1cc(C2CC2)on1)N1CCN(c2ccccc2)CC1	.	.	.	28µM	.	?
CCc1cc(C(=O)N2CCN(c3ccccc3)CC2)no1	.	.	/	/	/	/
CCCc1nnc(SCC(=O)N2CCCC(C)C2)n1CCOC (stereo not drawn)	.	.	.	.	.	.
Cc1cc(C)n2nc(SCc3cccc(S(=O)(=O)N(C)C)c3)nc2n1	.	45µM	/	/	/	.
Cc1ccc(CSc2nc3nc(C)cc(C)n3n2)cc1	.	/	/	/	/	.
O=C(O)c1ccc(N2C(=O)/C(=C/c3ccc(-c4ccc([N+](=O)[O-])cc4)o3)C=C2c2ccccc2)cc1	.	5.6µM	.	?	/	50µM
O=S(=O)(c1ccccc1)C(/C=N\O)/C=C/c1ccccc1 (stereo not drawn)	.	7.9µM	.	11µM	?	50µM
FC(F)(F)c1ccc(/C=N/n2c(C3CCCCC3)n[nH]c2=S)cc1	.	50µM	/	/	/	.
S=c1[nH]nc(C2CCCCC2)n1/N=C/c1ccc(Br)s1	.	8.9µM	.	.	?	.
S=c1[nH]nc(C2CCCCC2)n1/N=C/c1c(Cl)cccc1Cl	.	3.5µM	/	/	/	.
Cc1ccc(/C=N/n2c(C)nnc2C)cc1	.	.	.	.	.	.
Fc1cccc(Cl)c1/C=N/n1c(-c2cccnc2)n[nH]c1=S	.	?	.	?	/	.
Cc1ccc(/C=N/n2c(C3CCCCC3)n[nH]c2=S)cc1	.	10µM	/	/	/	50µM
O=C(COc1ccc(Br)cc1)NCCCn1ccnc1	.	.	/	/	/	.
CCCCc1ccc(NC(=O)C2(C)Cc3ccccc3C(=O)O2)cc1 (stereo not drawn)	.	.	/	/	/	/
CCc1ccc(/C=N/n2c(C3CCCCC3)n[nH]c2=S)cc1	.	32µM	/	/	/	?
O=C(O/N=C/c1ccc(Cl)cc1)C1CCCCC1	.	.	/	/	/	.
S=c1[nH]nc(C2CCCCC2)n1/N=C/c1ccc(Br)cc1	.	10µM	/	/	/	?
S=c1[nH]nc(C2CCCCC2)n1/N=C/c1ccc(Cl)cc1	.	40µM	/	/	/	?
Cc1ccc(CCCNC(=O)C2CCC(=O)N(Cc3cccc(F)c3)C2)cc1 (stereo not drawn)	.	.	/	/	/	.
